Measured affinities in a library of Ab-14 heavy chain variants

From the AlphaSeq antibody data of Li et al. 2023 (doi:10.1038/s41467-023-39022-2), copy in the FLAb collection.

Target peptide (SARS-CoV-2 spike, HR2 region): PDVDLGDISGINAS

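Phage display of a naive human antibody library on the peptide gave the parent. Designed CDR sequences, proposed from the first random library and measured here. Their group label is 14H_GP_Gibbs (GP: Gaussian process model; Gibbs: Gibbs sampling; a sequence that several methods proposed may carry one label only). The scFvs were displayed on barcoded MATa yeast, the peptide on MATalpha yeast. Mating (16 h, 30 °C) was followed by selection of diploids and sequencing of their barcodes. Read counts were normalised to the haploid input and turned into Kd by a linear fit to BCL2-family pairs of known affinity, for each replicate. There are six technical replicates.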

Ab-14 is the parent antibody, in scFv form: VH, then three GGGGS repeats, then VL. The light chain is unchanged in all variants.
VH: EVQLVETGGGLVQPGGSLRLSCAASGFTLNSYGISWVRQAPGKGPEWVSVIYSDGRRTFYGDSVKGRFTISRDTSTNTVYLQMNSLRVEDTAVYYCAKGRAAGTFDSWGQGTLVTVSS
VL: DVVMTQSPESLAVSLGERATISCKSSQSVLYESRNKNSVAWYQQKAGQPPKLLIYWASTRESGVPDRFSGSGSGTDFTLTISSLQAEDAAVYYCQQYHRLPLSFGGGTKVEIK

Each variant is given by its three heavy chain CDRs, as the data file delimits them; those of the parent are GFTLNSYGIS, VIYSDGRRTFYGDSVK, GRAAGTFDS. The read-out is the apparent dissociation constant on a log10 scale (nM): the lower, the stronger. An entry "nd" has no value in the source: the pair was not observed among the diploids in that replicate. This suggests poor binding but is not conclusive.

CDR-H1	CDR-H2	CDR-H3	log10 Kd (nM) by replicate	signal with controls
GFQLNSYGIS	VIYSDGRRTFYGDSVK	GRTAGTFDM	0.97 / 0.20 / 0.50 / 0.37 / 0.25 / 0.56	0/18
EFTLNSYGIS	VIYADGRRTFYGDSVK	GQAAGTFDK	nd / 0.83 / nd / 0.94 / 1.96 / 1.58	0/18
GFELNSYGIS	VIYSDGKRTFYGDSVK	GRLAGTFDS	1.54 / 1.13 / nd / 2.27 / 1.40 / 3.17	0/18
GFTLNSYGIS	VIYSDGRRTFYSDRVK	GQAAGTFDL	nd / nd / 0.82 / nd / 3.88 / nd	0/18
GFELNSYGIS	VIYSDGRRTFYEDSVK	GTQAGTFDS	0.73 / -0.04 / 0.01 / 0.11 / 0.41 / -0.15	1/18 (1.97)
GFDLNSYGIS	VIYSDGRRTAYGDEVK	GRNAGTFDS	-0.01 / 0.07 / -0.07 / -0.18 / -0.02 / 0.10	1/18 (3.13)
GFSLNCYGIS	VIYSDGRRTFYIDSVK	GNAAGTFDS	nd / nd / nd / nd / nd / nd	0/18
GFVLNNYGIS	VIYADGRRTFYGDSVK	GRTAGTFDS	0.13 / -0.10 / -0.40 / -0.39 / -0.54 / -0.08	0/18
GFELNSYGIS	VIYSDGRRTFYGDSVK	GQVAGTFDL	0.38 / 0.79 / 0.84 / 0.42 / 0.82 / 0.56	0/18
GFQLNEYGIS	VIYSDGRRTFYGDSVK	GRSAGTFDT	0.38 / 0.27 / 0.77 / 0.10 / 0.52 / 0.37	1/18 (2.86)
HFTLNSYGIS	VIYSDGRRTFYIDSVK	GHVAGTFDS	1.58 / 1.50 / 0.55 / 1.04 / 0.00 / 0.73	0/18
GFGLNSYGIS	VIYSDGRRTFYIDSVK	GQAAGTFDQ	0.88 / nd / 0.99 / 0.73 / 1.27 / nd	0/18
GFHLNSYGIS	VIYSDGRRTFYADNVK	GQTAGTFDS	1.00 / 0.72 / 0.50 / 0.89 / 0.77 / 0.98	1/18 (2.62)
HFQLNDYGIS	VIYSDGRRTFYGDSVK	GRQAGTFDS	0.31 / 1.51 / 0.10 / 1.26 / 0.47 / 0.86	0/18
HFELNSYGIS	VIYSDGRRTFYGDSVK	GKTAGTFDS	nd / nd / 1.87 / nd / 1.08 / 1.51	0/18
GFHLNSYGIS	VIYSDGRRTFYADDVK	GEAAGTFDS	nd / 0.73 / nd / -0.15 / nd / nd	0/18
GFHLNSYGIS	VIYSDGRRTFYADSVK	GKEAGTFDT	0.58 / 0.47 / 0.44 / -0.19 / 0.09 / 0.22	0/18
GFDLNSYGIS	VIYSDGRRTFYSDSVK	GQVAGTFDS	-0.25 / -0.22 / -0.53 / -0.12 / -0.42 / -0.56	0/18
GFSLNSYGIS	VIYSDGRRTFYGDSVK	GMEAGTFDQ	0.37 / 0.30 / 0.43 / 0.60 / 0.14 / 0.22	1/18 (2.00)
GFSLNEYGIS	VIYSDGRRTFYGDDVK	GRQAGTFDS	-0.41 / -0.23 / -0.59 / -0.67 / -0.62 / -0.56	0/18
KFSLNNYGIS	VIYSDGRRTFYADSVK	GRNAGTFDS	1.29 / 1.05 / 0.83 / 1.35 / 1.68 / 1.07	0/18
GFSLNSYGIS	VIYSDGRRTFYSDDVK	GQTAGTFDS	-0.18 / -0.29 / -0.44 / -0.56 / -0.34 / -0.27	0/18
GFTLESYGIS	VIYSDGRRTFYADRVK	GRTAGTFDS	nd / nd / 1.55 / nd / 3.60 / nd	0/18
GFSLNSYGIS	VIYSDGRRTFYKDQVK	GQTAGTFDS	nd / 0.85 / 0.23 / 1.12 / 0.13 / 0.59	0/18
GFSLNWYGIS	VIYSDGRRTAYGDSVK	GRAAGTFDS	1.70 / 2.78 / 1.70 / 1.68 / 1.68 / 2.25	1/18 (1.67)
GFQLNSYGIS	VIYSDGRRTFYGDNVK	GKTAGTFDT	0.72 / 0.90 / 1.17 / 1.60 / 0.62 / nd	0/18
GFDLNMYGIS	VIYSDGRRTFYGDSVK	GEAAGTFDK	2.07 / 0.20 / 0.91 / 1.55 / 0.01 / 0.19	0/18
GFTLESYGIS	VIYSDGRRTFYSDRVK	GQAAGTFDS	1.04 / nd / nd / 0.16 / 1.25 / 1.63	0/18
GFDLNSYGIS	VIYSDGRRTFYADQVK	GRQAGTFDS	nd / nd / nd / nd / nd / nd	0/18
GFELNEYGIS	VIYSDGRRTFYGDSVK	GRSAGTFDS	2.15 / 1.64 / 2.51 / 1.77 / 1.78 / 1.37	0/18
HFNLNSYGIS	VIYSDGRRTFYGDSVK	GKTAGTFDS	1.92 / 2.11 / 1.86 / 1.12 / 1.26 / 1.91	0/18
GFALNSYGIS	VIYSDGRRTFYGDSVK	GNEAGTFDT	-0.12 / -0.20 / -0.28 / -0.24 / -0.18 / -0.18	0/18
GFDLNSYGIS	VIYSDGRRTAYGDSVK	GRAAGTFDD	nd / nd / nd / nd / nd / -0.72	0/18
GFSLNSYGIS	VIYSDGRRTFYADMVK	GEAAGTFDT	nd / 1.60 / 1.14 / 0.81 / 0.78 / nd	0/18
GFTLNSYGIS	VIYSDGRRTFYSDSVK	GQTAGTFDD	0.28 / 0.08 / -0.14 / -0.08 / -0.64 / -0.32	1/18 (3.54)
GFQLNSYGIS	VIYSDGRRTFYVDQVK	GRTAGTFDS	nd / nd / nd / nd / nd / nd	0/18
GFELNSYGIS	VIYSDGRRTFYADSVK	GHAAGTFDL	0.20 / 0.53 / -0.34 / -0.08 / 0.77 / 0.31	0/18
GFSLNSYGIS	VIYSDGRRTFYGDSVK	GRAAATFDT	1.34 / nd / nd / nd / nd / nd	0/18
GFELNSYGIS	VIYSDGRRTFYADHVK	GRTAGTFDT	2.34 / 2.69 / 2.96 / 1.73 / 1.58 / nd	0/18
GFTLDSYGIS	VIYSDGRRTFYGDRVK	GRTAGTFDA	nd / 1.50 / 0.36 / 0.47 / 0.50 / 1.43	0/18
GFDLNSYGIS	VIYSDGRRTFYSDSVK	GRTAGTFDQ	-0.39 / 1.40 / -0.74 / -0.80 / 0.44 / -0.52	0/18

The first 3 variants above that were never detected:

CDR-H1	CDR-H2	CDR-H3	log10 Kd (nM) by replicate	signal with controls
GFSLNCYGIS	VIYSDGRRTFYIDSVK	GNAAGTFDS	nd / nd / nd / nd / nd / nd	0/18
GFDLNSYGIS	VIYSDGRRTFYADQVK	GRQAGTFDS	nd / nd / nd / nd / nd / nd	0/18
GFQLNSYGIS	VIYSDGRRTFYVDQVK	GRTAGTFDS	nd / nd / nd / nd / nd / nd	0/18

The authors' rule: three or more of the six replicates give a measured affinity, fewer mean a poor binder. Values of this round are not directly comparable with the first-round values of the same sequences. Three control strains display no target. For all heavy chain designs, 1% of the pairings with them gave a signal, with a median of 2.08 and one signal in twenty below 0.84, so weak values seen in few replicates may be background. Also given: how often the same scFv was detected with the empty control strains, with their mean in brackets.